Measured values published in publication PMC6271009, “Design and Synthesis of Thiazolo[5,4-f]quinazolines as DYRK1A Inhibitors, Part II” (Molecules, 2014).

Columns and labels:
[1] = biological target: T1, DYRK1A (Homo sapiens, UniProt Q13627); assay: DYRK1A kinase assay, Reaction Biology Corporation HotSpot technology (33P ATP); assay type: biochemical; settings: purified recombinant kinase, 10 µM ATP, 120 min, room temperature
T1 construct: Purified recombinant kinase was incubated with serial 3-fold dilutions of test compounds; purchased Reaction Biology Corporation

[2] = biological target: DYRK1B (Homo sapiens, UniProt Q9Y463); assay: DYRK1B kinase assay, Reaction Biology Corporation HotSpot technology (33P ATP)

Row | Structure (SMILES) | IC50 [1] [nM] | IC50 [2] [nM]
1 | CCN1/C(=C/C(C)=O)Sc2ccc(OC)cc21 [TG003, reference compound] | 24 | 
2 | COC(=N)c1nc2ccc3ncnc(N(C)c4ccc(OC)c(OC)c4)c3c2s1 [Compound 11b, Methyl 9-[(3,4-dimethoxyphenyl)(methyl)amino]thiazolo[5,4-f]quinazoline-2-carbimidate] |  | 4460
3 | COC(=N)c1nc2ccc3ncnc(N(C)c4ccc(OC)cc4)c3c2s1 [Compound 11a, Methyl 9-[(4-methoxyphenyl)(methyl)amino]thiazolo[5,4-f]quinazoline-2-carbimidate] |  | 84.9
